What was measured:
Assay in all cases: SPR
[1] = biological target: ALK-2
[2] = biological target: α-CTX
[3] = biological target: ALK-3
[4] = biological target: NRP1
[5] = biological target: FCRL5
[6] = biological target: Platelet-derived growth factor receptor ɑ (PDGFRɑ), biotinylated receptor ectodomain (UniProt P16234)

Protein sequences, listed by entry. Tags and fused reporters are not part of them. Residues count along the entry.
UniProt P16234, 24-528: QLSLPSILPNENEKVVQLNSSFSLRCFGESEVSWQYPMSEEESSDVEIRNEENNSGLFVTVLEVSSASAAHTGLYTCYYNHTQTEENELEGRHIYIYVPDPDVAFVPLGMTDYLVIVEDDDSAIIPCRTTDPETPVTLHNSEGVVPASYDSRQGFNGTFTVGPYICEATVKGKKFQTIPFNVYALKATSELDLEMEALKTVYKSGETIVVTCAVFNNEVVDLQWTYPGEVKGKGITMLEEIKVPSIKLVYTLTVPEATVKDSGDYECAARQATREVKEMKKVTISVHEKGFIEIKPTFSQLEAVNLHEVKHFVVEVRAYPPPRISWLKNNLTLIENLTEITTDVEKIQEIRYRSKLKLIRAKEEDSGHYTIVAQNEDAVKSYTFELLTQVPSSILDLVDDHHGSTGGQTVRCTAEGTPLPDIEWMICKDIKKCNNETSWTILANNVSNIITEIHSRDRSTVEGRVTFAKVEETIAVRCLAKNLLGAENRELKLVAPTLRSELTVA

ALK-2bp
Kd [1]: 164 nM

α-CTXbp
Kd [2]: 1.9 nM

ALK-3bp
Kd [3]: 0.528 nM

NRP1bp
Kd [4]: 84 nM

FCRL5bp
Kd [5]: 82 nM

PDGFRαbp-7LBF
Kd [6]: 4 nM
